According to ChEMBL document CHEMBL5550183, “Discovery of Novel 1-Phenylpiperidine Urea-Containing Derivatives Inhibiting β-Catenin/BCL9 Interaction and Exerting Antitumor Efficacy through the Activation of Antigen Presentation of cDC1 Cells” (J Med Chem, 2024):
The source made the active and inactive calls.

How the values were obtained:
CT26 [1] = test: Antitumor activity against mouse CT26 cells implanted in BALB/c mouse assessed as upregulation of psmb8 expression in tumor at 30 mg/kg, ip measured for 14 days by qPCR analysis; assay type: functional, organism-based; conditions: time 14.0 day
MC-38 = test: Antiproliferative activity against mouse MC38 cells assessed as inhibition of cell growth incubated for 48 hrs by CCK-8 assay; assay type: functional, cell-based
HEK293 = test: Antiproliferative activity against Wnt-independent human HEK293 cells assessed as inhibition of cell growth incubated for 48 hrs by CCK-8 assay; assay type: functional, cell-based
HCT-116 = test: Antiproliferative activity against Wnt-dependent human HCT-116 cells assessed as inhibition of cell growth incubated for 48 hrs by CCK-8 assay; assay type: functional, cell-based
CT26 [2] = test: Antitumor activity against mouse CT26 cells implanted in BALB/c mouse assessed as upregulation of Btk expression in tumor at 30 mg/kg, ip measured for 14 days by qPCR analysis; assay type: functional, organism-based; conditions: time 14.0 day
CT26 [3] = test: Antitumor activity against mouse CT26 cells implanted in BALB/c mouse assessed as increase in tumor infiltration ratio of IFN-gamma to B+ CD8+ cells at 30 mg/kg, ip measured for 14 days by flow cytometry analysis; assay type: functional, organism-based; conditions: time 14.0 day
CT26 [4] = test: Antiproliferative activity against Wnt-dependent mouse CT26 cells assessed as inhibition of cell growth incubated for 48 hrs by CCK-8 assay; assay type: functional, cell-based
A549 = test: Antiproliferative activity against Wnt-independent human A549 cells assessed as inhibition of cell growth incubated for 48 hrs by CCK-8 assay; assay type: functional, cell-based
CT26 [5] = test: Antitumor activity against mouse CT26 cells implanted in BALB/c mouse assessed as upregulation of IRF1 expression in tumor at 30 mg/kg, ip measured for 14 days by qPCR analysis; assay type: functional, organism-based; conditions: time 14.0 day
SW480 = test: Antiproliferative activity against Wnt-dependent human SW480 cells assessed as inhibition of cell growth incubated for 48 hrs by CCK-8 assay; assay type: functional, cell-based
CT26 [6] = test: Antitumor activity against mouse CT26 cells implanted in BALB/c mouse assessed as upregulation of H2-Aa expression in tumor at 30 mg/kg, ip measured for 14 days by qPCR analysis; assay type: functional, organism-based; conditions: time 14.0 day
CT26 [7] = test: Antitumor activity against mouse CT26 cells implanted in BALB/c mouse assessed as upregulation of STAT1 expression in tumor at 30 mg/kg, ip measured for 14 days by qPCR analysis; assay type: functional, organism-based; conditions: time 14.0 day
RKO = test: Antiproliferative activity against Wnt-independent human RKO cells assessed as inhibition of cell growth incubated for 48 hrs by CCK-8 assay; assay type: functional, cell-based
B16 = test: Antiproliferative activity against mouse B16 cells assessed as inhibition of cell growth incubated for 48 hrs by CCK-8 assay; assay type: functional, cell-based

Measured: Activity

CC(C)(Oc1cccc(N2CCC[C@@H](NC(=O)N(Cc3ccc(-c4cn[nH]c4)cc3)C3CC3)C2)c1)C(=O)NCCCN
inactive: HEK293 | A549 | RKO
active: all other assays above
